Assay results taken from patent publication US5888763A, “Peptides specific for the first Crk-SH3 domain” (The Rockefeller University, priority 1994, dated 1999).

Amino acid sequences for entries named in this document (tags omitted). Residues count along the entry.
UniProt P06241, 82-143 limits assumed: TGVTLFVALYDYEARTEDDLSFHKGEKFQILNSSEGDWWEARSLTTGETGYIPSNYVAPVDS
UniProt Q64010, 132-192 limits assumed: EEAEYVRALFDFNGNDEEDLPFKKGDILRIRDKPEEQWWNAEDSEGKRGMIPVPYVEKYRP

Tests used:
Experiment in all cases: SH3 filter binding assay: blotted SH3 domains probed with 35S-gst-4-12
Details in all cases: 35S-labeled probe
[1] = target: T1, p85α/PI3-Kinase SH3 domain (Homo sapiens)
T1 construct: The PI3Kp85-a-SH3 domain was a gift of L. Cantley
Description: (§1) SH3 filter binding assay. The SH3 filter binding assay was carried out as described previously (Reichman, 1993, Cell Growth Diff. 3:451). Briefly, about 30 pmoles of each gst-fusion peptide or gst-fusion SH3 domain were blotted and incubated at room temperature over night in a buffer (TBS, 0.05% Tween-20, 1 mM DTT, 2% BSA, 1% ovalbumin) to allow renaturation. The blot with the gst-fusion peptides was probed with 1-2 μg/ml ^35 S-labeled gst-fusion CrkSH3(1) domain, whereas the blot that contains the SH3 domains was probed with ^35 S-labeled CB-1/gst-4-12 fusion peptide at 1-2 μg/ml. The blots were washed 3 times with TBS, 0.05% Tween-20, 1 mM DTT, 0.2% BSA, 0.1% ovalbumin, and bound probe was visualized by autoradiography.

Grb2 SH3 domain = test system: Grb2 SH3 domain
Description: as §1

Fyn SH3 domain = target: T2, Fyn SH3 domain (Homo sapiens, UniProt P06241)
T2 construct: made in house; host or cells: bacteria
Description: as §1

first CrkSH3 domain = target: T3, first CrkSH3 domain (Mus musculus, UniProt Q64010)
T3 construct: probed with 1-2 μg/ml ^35 S-labeled gst-fusion CrkSH3(1) domain; made in house; host or cells: bacteria
Description: as §1

α-Spectrin SH3 domain = test system: α-Spectrin SH3 domain
Description: as §1

- binding to p85α/PI3-Kinase SH3 domain [1]: weak interaction
- binding to Grb2 SH3 domain (Grb2 SH3 domain): weak interaction
- binding to Fyn SH3 domain (Fyn SH3 domain): weak interaction
- binding to first CrkSH3 domain (first CrkSH3 domain): bound strongly
- binding to α-Spectrin SH3 domain (α-Spectrin SH3 domain): weak interaction
B1: gst-4-12: 9 amino acid gst-fusion peptide derived from CB-1 (protein)
chain: MSPILGYWKIKGLVQPTRLLLEYLEEKYEEHLYERDEGDKWRNKKFELGLEFPNLPYYIDGDVKLTQSMAIIRYIADKHNMLGGCPKERAEISMLEGAVLDIRYGVSRIAYSKDFETLKVDFLSKLPEMLKMFEDRLCHKTYLNGDHVTHPDFMLYDALDVVLYMDPMCLDAFPKLVCFKKRIEAIPQIDKYLKSSKYIAWPLQGWQATFGGGDHPPKPPALPPKKR
